# AlphaSeq binding of Ab-14 heavy chain variants to a spike HR2 peptide

Reference: Li et al. 2023, doi:10.1038/s41467-023-39022-2. File: FLAb, binding data.

Target: peptide PDVDLGDISGINAS, taken from heptad repeat 2 (HR2) of SARS-CoV-2 spike.

Parent: Ab-14, a human scFv built as VH, the linker GGGGSGGGGSGGGGS, VL. Only the CDRs of the heavy chain vary.
VH: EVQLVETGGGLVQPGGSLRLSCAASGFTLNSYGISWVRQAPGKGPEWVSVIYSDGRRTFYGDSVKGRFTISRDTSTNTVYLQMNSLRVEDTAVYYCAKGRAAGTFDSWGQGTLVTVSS
VL: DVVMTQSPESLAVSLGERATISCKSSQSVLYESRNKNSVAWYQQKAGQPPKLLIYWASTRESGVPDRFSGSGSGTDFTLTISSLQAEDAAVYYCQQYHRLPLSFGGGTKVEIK

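These sequences belong to a second round, designed from the earlier measurements on random variants of the parent. Several design methods are mixed in this list. The assay is AlphaSeq: two haploid yeast populations carry antibody and antigen on their surface. After mating in shaken culture at 30 °C for 16 h, diploids were selected and their barcode pairs sequenced. Each replicate has its own calibration line, from reference interactions of the BCL2 family. Each pool was mated in six replicate cultures.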

The parent's heavy chain CDRs are GFTLNSYGIS, VIYSDGRRTFYGDSVK, GRAAGTFDS; each variant's own CDRs replace them letter for letter. Variants here have at most six changes. Values are log10 of the apparent Kd in nM; lower means stronger binding. "nd" means that the variant was in the library but no mating with the target was seen in that replicate; the authors take this as a sign of poor binding, and no number exists. A sequence measured in both rounds can read differently, since the two assays cover different ranges.

| CDR-H1 | CDR-H2 | CDR-H3 | log10 Kd (nM) by replicate |
|---|---|---|---|
| GFGLNSYGIS | VIYSDGRRTFYADSVK | GEAAGTMDS | 1.68 nd nd nd nd 2.09 |
| GFSLNWYGIS | VIYSDGRRTFYIDSVK | GNAAGTFDS | 0.60 1.80 1.59 1.24 nd nd |
| GFSLNDYGIS | VIYSDGRRTFYGDSVK | GRQAGTFMS | nd nd nd nd nd 1.51 |
| GFPLNDYGIS | VIYSDGRRTFYGDSVK | GRQAGTFDS | 1.28 1.55 0.91 1.00 1.43 1.07 |
| GFTLNSYGIS | VIYADGRRTFYGLSVK | GRAAGPNKS | nd nd nd nd nd nd |
| GFDLNDYGIS | VIYSDGRRTFYGDSVK | GRAAGTFES | 0.30 0.30 1.63 0.54 0.45 0.19 |
| GFSLNNYGIS | VIYSDGRRTQYIDSVK | GRAAGTFDS | nd 0.66 1.34 1.73 0.87 0.92 |
| GFTLLSYGIS | VIYSDGRRTFYGDSFK | GRAAGDFDS | nd nd nd nd nd nd |
| KFSLNSYGIS | VIYSDGKRTFYGDSVK | GRQAGTFDS | nd nd nd nd nd nd |
| GFTLNSYGIS | VIYSDGRRTFYQDSVK | GRATGTFSV | nd nd nd nd nd nd |
| GFSLNDYGIS | VIYSDGRRTFYGDSVK | GRAAGTFIS | nd nd nd nd nd nd |
| GFTLNEYGIS | VIYSDGRRTFYGDSVK | GRTAGTFIF | nd nd nd nd nd nd |
| GFWLNSYGIS | VIYSDGRRTFYHDKVK | GAAAGTFDS | nd nd nd nd nd nd |
| GFSLNEYGIS | VIYSDGRRTFYGDSVK | GQTAGTFDL | 0.07 -0.11 -0.01 0.04 0.25 0.16 |
| GFTLNDYGIS | VIYSDGRRTEYGDSVK | GRTAGTFDS | 0.41 0.72 0.29 0.50 0.87 0.65 |
| DFQLNSYGIS | VIYSDGQRTFYGDSVK | GREAGTFDQ | nd 0.42 0.44 0.99 0.17 0.43 |
| GFTLNSYGIS | VIYSDGRRTFYLDSVK | GRAAGRFDS | nd nd nd nd nd nd |
| GFGLNEYGIS | VIYSDGRRTFYGDSVK | GRQAGTFDS | 1.96 0.24 0.46 0.16 0.81 0.84 |
| FFSLNEYGIS | VIYSDGRRTFYGDSVK | GRAAVTFDQ | nd nd nd nd nd nd |
| GFNLNSYGIS | VIYADGRRTFYGDSVK | GQSAGTFDS | 0.79 0.02 -0.39 0.04 -0.22 -0.43 |
| GFTLNSYGIS | VIYSDGSRTFYQDSVK | GRAAGTFDT | 1.66 2.01 2.26 2.67 1.45 1.84 |
| GNTLNSYGIS | VIYSDGRRTFYGDSTK | GRAAGFFDS | nd nd nd nd nd nd |
| GFTLNSYGIS | VIYSDGKRTFYSDSVK | GQVAGTFDA | 0.12 0.03 -0.08 0.16 0.22 0.33 |
| GFTLNSYGIS | VIYSDGFRTFYGDSVK | GREAGTPDS | 0.95 0.83 0.99 0.80 0.62 1.48 |
| GFTLNDYGIS | VIYSDGRRTFYSDSVK | GDAAGTFDS | 0.10 0.48 0.15 0.90 -0.23 0.69 |
| GFTLNDYGIS | VIYSDGRRTQYIDIVK | GRNAGTFDS | nd nd 0.95 nd nd nd |
| GFLLNDYGIS | VIYSDGRRTYYGDSVK | GRAAGTFDS | 1.49 1.40 0.83 nd 1.48 0.51 |
| GFSLNSYGIS | VIYSDGRRTFYIDSVK | GRIAGTFDS | 1.60 1.85 1.44 1.81 2.42 2.39 |
| GFALNSYGIS | VIYSDGRRTFYGDSVK | GRPAGSFDS | nd nd nd nd nd nd |
| GFDLNSYGIS | VIYSDGRRTFYDDSVK | GKTAGTFDS | 0.36 -0.04 0.19 0.01 0.27 0.10 |
| GFTLNEYGIS | VIYSDGRRTFYEDDVK | GRIAGTFDS | 1.14 0.63 0.57 0.35 0.50 0.72 |
| GFELNAYGIS | VIYSDGRRTAYGDSVK | GRTAGTFDS | -0.63 nd nd -0.34 -1.33 -1.40 |
| GFTLNSYGIS | VIYSDGRRTFYSDSVK | GQEAGTFDT | -0.19 -0.16 -0.31 -0.23 -0.27 -0.10 |
| GFTLNSYGIS | VIYSDGRRTFYGDSTK | ERNADTFDS | nd nd nd nd nd nd |
| GFCLNSYGIS | VIYSDGRRTFYSDSVK | GQTAGTFDS | nd nd nd nd nd nd |
| GFSLNEYGIS | VIYSDGRRTFYGDSVK | GSAAGTFDS | 0.96 1.78 1.48 0.59 1.02 1.24 |
| GFTLNSYGIS | VIYSDGRRTMYGDSVK | GTWAGTFDS | nd nd nd nd nd 3.43 |
| GFTLDSYGIS | VIYSDGRRTFYGDSVS | GRIAGTFDS | 1.41 2.07 2.67 1.91 2.64 nd |
| GFTLNEYGIS | VIYSDGRRTFYSDSVK | GRASGTFDS | 2.33 nd nd 1.73 1.97 nd |
| MFDLNSYGIS | VIYSDGRRTFYADSVK | GRNAGTFDS | 0.37 0.38 -0.33 0.12 0.20 -0.27 |
| GFSLNEYGIS | VIYSDGRRTFYGDSVK | GRAAGTFHK | nd nd nd nd nd nd |
| GFDLNSYGIS | VIYSDGRRTFYGDSVK | GHVAGTFDS | 0.21 -0.02 0.19 -0.19 0.34 0.23 |
| GFTLNSYGIS | VIYSDGFRTFYGDSVK | GRAAGGFDD | nd nd nd nd nd nd |
| GFDLNSYGIS | VIYSDGRRTFYGDSVK | GRAAQWYNS | nd nd nd nd nd nd |
| GFTLNMYGIS | VIYSDGRRTAYDDSVK | GRAAGTFDL | 1.63 0.67 0.97 0.24 0.32 0.78 |
| GFALNSYGIS | VIYSDGRRTFYEDSVK | GEAAGTFVV | nd 1.57 nd nd nd nd |
| GFELNEYGIS | VIYSDGRRTFYTDSVK | GEQAGTFDS | -0.21 0.41 -0.10 0.40 0.21 0.29 |
| GFALNSYGIS | VIYADGRRTFYGDSVK | RRAAGTFDS | nd nd nd nd nd nd |

The opening 6 entries, copied out:

CDR-H1,CDR-H2,CDR-H3,log10 Kd (nM) by replicate
GFGLNSYGIS,VIYSDGRRTFYADSVK,GEAAGTMDS,1.68 nd nd nd nd 2.09
GFSLNWYGIS,VIYSDGRRTFYIDSVK,GNAAGTFDS,0.60 1.80 1.59 1.24 nd nd
GFSLNDYGIS,VIYSDGRRTFYGDSVK,GRQAGTFMS,nd nd nd nd nd 1.51
GFPLNDYGIS,VIYSDGRRTFYGDSVK,GRQAGTFDS,1.28 1.55 0.91 1.00 1.43 1.07
GFTLNSYGIS,VIYADGRRTFYGLSVK,GRAAGPNKS,nd nd nd nd nd nd
GFDLNDYGIS,VIYSDGRRTFYGDSVK,GRAAGTFES,0.30 0.30 1.63 0.54 0.45 0.19

The authors averaged sequences with at least three values out of six and counted those with two or fewer as poor binders. The parent sequence was in this pool as ten entries: three were never detected, three once, and four in most replicates, with averages from 0.34 to 2.37. Empty control strains, which show no peptide, gave a signal in 1% of pairings with all heavy chain designs; the median was 2.08 and 95% of these signals were weaker than 0.84. No background was subtracted.